Assays:
[1] = Apparent permeability of compound across apical to basolateral side in MDCK-II cells by fluorescence based HPLC analysis; type: ADME, cell-based, Canis lupus familiaris; details: dog
[2] = Apparent volume of distribution during terminal phase in Sprague-Dawley rat at 10 mg/kg, ip measured after 24 hrs by LC-MS/MS analysis; type: ADME, organism-based; details: in vivo
[3] = AUC (0 to 24 hrs) in Sprague-Dawley rat at 10 mg/kg, ip measured after 24 hrs by LC-MS/MS analysis; type: ADME, organism-based; details: in vivo
[4] = Cmax in Sprague-Dawley rat at 10 mg/kg, ip measured after 24 hrs by LC-MS/MS analysis; type: ADME, organism-based; details: in vivo
[5] = Ratio of drug concentration in Sprague-Dawley rat brain to plasma at 10 mg/kg, ip measured after […] by LC-MS/MS analysis; type: ADME, organism-based; details: time 0.17 hrs
[6] = Ratio of drug concentration in Sprague-Dawley rat brain to plasma at 10 mg/kg, ip measured after 2 hrs by LC-MS/MS analysis; type: ADME, organism-based
[7] = Ratio of drug concentration in Sprague-Dawley rat brain to plasma at 10 mg/kg, ip measured after 1 hrs by LC-MS/MS analysis; type: ADME, organism-based
[8] = Tmax in Sprague-Dawley rat at 10 mg/kg, ip measured after 24 hrs by LC-MS/MS analysis; type: ADME, organism-based; details: in vivo
[9] = Ratio of drug concentration in Sprague-Dawley rat brain to plasma at 10 mg/kg, ip measured after 0.5 hrs by LC-MS/MS analysis; type: ADME, organism-based

SMILES	Papp [1]	Vz/F [2] [L/kg]	AUC [3] [ng·h/mL]	Cmax [4] [ng/mL]	BPR [5] [%]	BPR [6] [%]	BPR [7] [%]	Tmax [8] [min]	BPR [9] [%]
CCc1cc(=O)[nH]c(-n2nc(C)cc2N[C@H](C)C2CCCC2)n1	7.9 10^-6 cm/s								
CCc1cc(=O)[nH]c(-n2nc(C)cc2N[C@@H](C)c2ccccc2)n1		12	4611	9993	15	13	10	10.2	14
CCc1cc(=O)[nH]c(-n2nc(C)cc2N[C@H](C)c2cccc(C(F)(F)F)c2)n1	7.2 10^-6 cm/s								

Source: ChEMBL document CHEMBL6127110, “Pyrazolo-Pyrimidinones with Improved Solubility and Selective Inhibition of Adenylyl Cyclase Type 1 Activity for Treatment of Inflammatory Pain” (J Med Chem, 2024)
